Rango release inh = prevents RanGTP from dissociating the Rango-importin beta complex; O95149+P62826; Biochemical FRET Rango-importin beta, RanGTP-induced dissociation; Potency, µM (doses to about 46.1 µM), for the others: at the highest dose activity change, negative = inhibition; 0.071% of 340,000 active; AID 540253; note: potency is the fitted concentration of half-maximal effect; % of control where 0% means no effect; nearly all actives have a fitted effect of over 45% in size
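Rango (0.1 uM)–importin beta (0.25 uM) complex; RanGTP-RCC1 trigger; 45 min RT; CFP/YFP FRET read.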
a7 integrin act = activates integrin-mediated alleviation for muscular dystrophy | alpha7betagal myoblasts, beta-gal FDG fluorescence, 48 h | Potency, µM (series often up to 38.3 µM), without a hit: at the highest dose activation, usual class: activators | 0.064% of 350,000 active; active = well fitted activation curve with a large enough effect; inconclusive = small, poorly fitted or top-dose-only effect; inactive = no such curve, though single readings can be large or run the other way;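 note: potency is the fitted concentration of half-maximal effect; 100% = response of the positive control SU9516; nearly all actives have a fitted effect of over 60% in size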
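alpha7betagal+/- myoblasts (passage 13, 250/well) treated 48 h at 37C with compounds at 1:260 dilution of DMSO stock. Lysed, then beta-galactosidase activity read as FDG fluorescence (ex 480/em 540) after 30 min, with pre-read for autofluorescence.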
Rango complex inh = inhibitors of Rango-importin beta complex formation; Potency, µM (titrated, usually from 92.2 µM), inactives show at the top dose inhibition of complex formation; Rango CFP/YFP FRET sensor + importin beta, 45 min; Q14974; AID 540263; 0.031% of 340,000 active;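 note: potency is the fitted concentration of half-maximal effect; 0% = DMSO wells and 100% = buffer wells lacking importin beta; nearly all actives have a fitted effect of over 15% in size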
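Inhibition scored from the CFP 486 nm/YFP 530 nm FRET ratio 45 min after adding 0.125 microM importin beta to 50 nM Rango biosensor preincubated 5 min with compound (room temperature, PBS with DTT, Tween-20, BSA). No-importin wells as positive control.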
uPA surface inh = cell surface uPA generation inhibition; Potency, µM (doses to about 38.3 µM), without a hit: at the highest dose activity change, negative = inhibition, hits mostly inhibitors; cell surface uPA generation assay, qHTS; AID 540303; 0.31% of 330,000 active; active = well fitted inhibition curve with a large enough effect; inconclusive = small, poorly fitted or top-dose-only effect; inactive = no such curve, though single readings can be large or run the other way; tested in mouse RAW 264.7 cells; note: potency is the fitted concentration of half-maximal effect; % is set by controls: 0 for no effect and ±100 for the full control effect; nearly all actives have a fitted effect of over 55% in size
Giardia killer = kills Giardia lamblia. Giardia lamblia trophozoite viability. activity change, % at 7.66 µM, hits read low. 0.15% of 340,000 active; in the data active = activity change below about -80%; inconclusive = between about -30% and that limit;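 note: parasites exposed to compound for two days anaerobically before the ATP read; % is set by controls: 0 for no effect and ±100 for the full control effect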
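Viability, read as ATP luminescence: trophozoites at 100 cells/well, compound added, 48 hrs anaerobic at 37 deg C, then 15-30 min room-temperature development before reading.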
* marks the source's active call; other numbers are inactive results; u = inconclusive; x = not tested or not shown; [ ] = dose if it differs, or a comment. In the library only some 0.59% were active in any assay of this set; here they are far more common. Unless noted, calls come from the whole dose curve.

no. | smiles | Rango release inh | a7 integrin act | Rango complex inh
1 | C=CCN(c1ccccc1OC)S(=O)(=O)c1cccc(C(=O)NCC(c2ccc(OC)cc2)N2CCCC2)c1 (configuration not stated) | -35% | -51% | 2%
2 | CCOC(=O)C1CCN(C(=O)c2ccc3c(=O)n4nc(Nc5ccccc5OC)sc4nc3c2)CC1 | x | 4% | x
3 | Cc1csc2nc3cc(C(N)=O)ccc3c(=O)n12 | u | -19% | u
4 | NC(=O)c1ccc2c(=O)n3c(-c4cc(Cl)c(N)c(Cl)c4)csc3nc2c1 | 2% | 0% | 0%
5 | CCCCCCN1C[C@@H](O)[C@H](n2cc(C3CC3)nn2)C[C@@H]1c1ccc(C)cc1 | x | -6% | x
6 | Oc1ccccc1C=NN=C1c2ccccc2-c2ccccc21 | 4% | -23% | 1%
7 | C/C(=N/N=C/c1ccccc1O)c1ccccc1O | u | -4% | 37µM*
8 | O=C1c2ccccc2S(=O)N1c1cccc(F)c1 (configuration not stated) | x | 20% | x

no. | uPA surface inh | Giardia killer
1 | -8% | -6
2 | x | x
3 | 5% | 5
4 | 5µM* | -3
5 | x | x
6 | 1% | 5
7 | 4% | -7
8 | x | x

no. | smiles | Rango release inh | a7 integrin act | Rango complex inh
9 | O=C(CSc1nc2ccccc2o1)N/N=C/c1ccc(O)c(O)c1 | -12% | -22% | -1%
10 | O=C(CSc1nc2ccccc2o1)N/N=C/c1ccccc1 | 5% | 13% | -3%
11 | COc1ccc(CCn2c(=S)[nH]c(=O)c3nccnc32)cc1OC | x | x | x
12 | Nc1ccc2nc(-c3ccc(Cl)cc3)[nH]c2c1 | u | -1% | u
13 | Cc1nc(-c2cccc(NC(=O)c3ccco3)c2)cs1 | -1% | 4% | -1%
14 | Cc1nc(-c2ccc(NC(=O)c3ccco3)cc2)cs1 | -7% | 16% | 0%
15 | O=C(/C=C/c1ccccc1Cl)Nc1cccc(S(=O)(=O)NC2=NCCCCC2)c1 | -11% | -6% | -3%
16 | O=C(/C=C/c1ccc(Cl)cc1Cl)Nc1cccc(S(=O)(=O)NC2=NCCC2)c1 | 0% | -18% | -1%

no. | uPA surface inh | Giardia killer
9 | 6.3µM* | -3
10 | -11% | -12
11 | x | -17
12 | 4.5µM* | -19
13 | -3% | -1
14 | u | -98*
15 | -7% | -21
16 | 4.5µM* | u

Random excerpt: 2 compounds from above, in no set order.
no. | smiles | Rango release inh | a7 integrin act | Rango complex inh
9 | O=C(CSc1nc2ccccc2o1)N/N=C/c1ccc(O)c(O)c1 | -12% | -22% | -1%
14 | Cc1nc(-c2ccc(NC(=O)c3ccco3)cc2)cs1 | -7% | 16% | 0%

no. | uPA surface inh | Giardia killer
9 | 6.3µM* | -3
14 | u | -98*

Results in sequence from the entries so far.
Nos. 5 to 12 in a7 integrin act, in turn: -6%, -23%, -4%, 20%, -22%, 13%, x, -1%
Nos. 5 to 12 in uPA surface inh, in turn: x, 1%, 4%, x, 6.3µM*, -11%, x, 4.5µM*
Nos. 5 to 12 in Rango release inh, in turn: x, 4%, u, x, -12%, 5%, x, u

The list continues:
no. | smiles | Rango release inh | a7 integrin act | Rango complex inh
17 | Fc1ccc(-c2cn3ccccc3n2)cc1 | -11% | 10% | -2%
18 | c1ccn2cc(-c3ccc4c(c3)OCCO4)nc2c1 | -19% | 15% | 0%
19 | CSc1ccc(/C=C2/C(=N)N3N=C(CC(=O)N4CCCC4)SC3=NC2=O)cc1 | 1% | 13% | -3%
20 | COC(=O)C(C(=O)OC)=C(/C=C/N(C)C)N(C)C | -3% | -12% | 0%
21 | COC(=O)C(C(=O)OC)=C(/C=C/C=C/N(C)C)N(C)C | 9.2µM* | 16%[7.66 µM] | u
22 | Cc1ccc2c(c1)COc1c3ccc(C(=O)N4CCCCC4)cc3nn1-2 | 11% | 2% | 0%
23 | Cc1ccc2c(c1)COc1c3ccc(C(=O)N[C@@H](CO)C(C)C)cc3nn1-2 | 1% | 4% | 1%
24 | O=C(c1ccc2c3n(nc2c1)-c1ccccc1CO3)N1CCOCC1 | -3% | -8% | 2%

no. | uPA surface inh | Giardia killer
17 | 10µM* | 14
18 | 3.2µM* | u
19 | 3% | -10
20 | 2% | -8
21 | x | -1
22 | -14% | -19
23 | u | -14
24 | 7.1µM* | 10

Quoted from the listing.
no. 20 | a7 integrin act: -12%
no. 21 | a7 integrin act: 16%[7.66 µM]
no. 23 | Giardia killer: -14

Next part.
no. | smiles | Rango release inh | a7 integrin act | Rango complex inh
25 | C[C@@H](CO)NC(=O)c1ccc2c3n(nc2c1)-c1ccccc1CO3 | 20% | 24% | 0%
26 | O=C(c1ccc2c3n(nc2c1)-c1ccc(Cl)cc1CO3)N1CCOCC1 | -3% | u | 1%
27 | O=C(c1ccc2c3n(nc2c1)-c1ccccc1CO3)N1CCCCC1 | -10% | -4% | 1%
28 | COc1ccc(-c2ccc(N(C)C)cc2)cc1C1C2C=CCC(C)C2C(=O)N1Cc1ccccc1 (configuration not stated) | x | x | x
29 | O=C1C2C(c3ccccc3)CC=CC2C(c2ccc(C(F)(F)F)cc2)N1Cc1ccccc1 (configuration not stated) | x | x | x
30 | O=C(CCN1CCN(c2ccccc2)CC1)N/N=C/c1ccc([N+](=O)[O-])o1 | -5% | -57% | -1%
31 | CCCOc1ccc(CCC(=O)N/N=C/c2ccc([N+](=O)[O-])o2)cc1 | -8% | -6% | -2%
32 | CCCOc1ccc(CC(=O)N/N=C\c2ccc(F)cc2)cc1 | 12% | -10% | 0%
33 | CCOC(=O)N/N=C\c1ccc([N+](=O)[O-])o1 | 14% | -34% | 3%

no. | uPA surface inh | Giardia killer
25 | 1.1µM* | u
26 | -26% | -16
27 | 4.5µM* | u
28 | x | 0
29 | x | -11
30 | -11% | u
31 | u | -88*
32 | 5% | 9
33 | -26% | -95*

Screens deposited in PubChem BioAssay by National Center for Advancing Translational Sciences (NCATS).
